According to US7528226B2, “TGFβ1-inhibitor peptides” (Rojecto de Biomedicina Cima S.L., priority 1998, dated 2009):

Tested on: type I, II and III cell receptors of TGFβ1
Experiment: Affinity labelling: inhibition of binding of 125I-TGFβ1 to its cell receptors on MV-1-Lu cells
Design: species or system human
Conditions: preincubation with peptide at 10^6 times the molar concentration of 125I-TGFβ1
Method: The MV-1-Lu cells were removed from the culture flasks incubating them at 37° C. for 10 minutes, with 10 ml of solution 1 (128 mM NaCl, 5 mM KCl, 25 mM 4-(2-hydroxyethyl)-1-piperazine ethanesulphonate at pH 7.5, 5 mM glucose and 1 mM EDTA). The cells thus removed were resuspended in solution 2 (128 Mm NaCl, 5 mM KCl, 50 mM 4-(2-hydroxyethyl)-1-piperazine ethanesulphonate at pH 7.5, 1.2 mM CaCl2, 1.2 mM MgSO4 and 5 mg/ml BSA) and were collected by centrifugation at 1000×g for 5 minutes. After centrifugation the cells were resuspended in solution 2 at a concentration of 10^6 cells/ml.
From this cell suspension, 0.5 ml aliquots were made in 24-well plates (Greiner GmbH, Frickenhausen, Germany), the peptides were added, in 50 μl of a 0.8 mg/ml solution, then this was incubated for 2 hours at 4° C. with stirring. Next, ^125I-TGFβ1 (2 μCi) was added to a final concentration of 277.2 pM (^125I-TGFβ1 human recombinant 800-2200 Ci/mmol, Amersham Life Science, Buckinghamshire, UK) and this was incubated for a further two hours at 4° C. with stirring.
After incubation, the cells were transferred to a centrifuge tube and were centrifuged cold at 12,000×g for 1 minute. […]

## CC[C@H](C)[C@H](NC(=O)[C@H](Cc1ccc(O)cc1)NC(=O)[C@@H]1CCCN1C(=O)[C@H](CS)NC(=O)[C@@H]1CCCN1C(=O)CNC(=O)[C@H](CC(C)C)NC(=O)[C@H](CS)NC(=O)[C@H](Cc1ccccc1)NC(=O)[C@H](CC(N)=O)NC(=O)[C@H](C)NC(=O)[C@H](Cc1c[nH]cn1)NC(=O)[C@H](Cc1ccc(O)cc1)NC(=O)CNC(=O)[C@H](CCCCN)NC(=O)[C@@H]1CCCN1C(=O)[C@H](CCC(=O)O)NC(=O)[C@@H](N)Cc1c[nH]cn1)C(=O)N[C@@H](Cc1c[nH]c2ccccc12)C(=O)N[C@@H](CO)C(=O)N[C@@H](CC(C)C)C(=O)N[C@@H](CC(=O)O)C(=O)N[C@H](C(=O)O)[C@@H](C)O [P29]
  inhibition of the binding of 125I-TGFβ1 to the cell receptors: inhibition of the binding
